# Values quoted from earlier work, collected in PMC12141447.
# Amino acid sequences for entries named in this document (tags omitted). A change or cut given only in a name is not applied to a line headed by its entry.
# UniProt O14490: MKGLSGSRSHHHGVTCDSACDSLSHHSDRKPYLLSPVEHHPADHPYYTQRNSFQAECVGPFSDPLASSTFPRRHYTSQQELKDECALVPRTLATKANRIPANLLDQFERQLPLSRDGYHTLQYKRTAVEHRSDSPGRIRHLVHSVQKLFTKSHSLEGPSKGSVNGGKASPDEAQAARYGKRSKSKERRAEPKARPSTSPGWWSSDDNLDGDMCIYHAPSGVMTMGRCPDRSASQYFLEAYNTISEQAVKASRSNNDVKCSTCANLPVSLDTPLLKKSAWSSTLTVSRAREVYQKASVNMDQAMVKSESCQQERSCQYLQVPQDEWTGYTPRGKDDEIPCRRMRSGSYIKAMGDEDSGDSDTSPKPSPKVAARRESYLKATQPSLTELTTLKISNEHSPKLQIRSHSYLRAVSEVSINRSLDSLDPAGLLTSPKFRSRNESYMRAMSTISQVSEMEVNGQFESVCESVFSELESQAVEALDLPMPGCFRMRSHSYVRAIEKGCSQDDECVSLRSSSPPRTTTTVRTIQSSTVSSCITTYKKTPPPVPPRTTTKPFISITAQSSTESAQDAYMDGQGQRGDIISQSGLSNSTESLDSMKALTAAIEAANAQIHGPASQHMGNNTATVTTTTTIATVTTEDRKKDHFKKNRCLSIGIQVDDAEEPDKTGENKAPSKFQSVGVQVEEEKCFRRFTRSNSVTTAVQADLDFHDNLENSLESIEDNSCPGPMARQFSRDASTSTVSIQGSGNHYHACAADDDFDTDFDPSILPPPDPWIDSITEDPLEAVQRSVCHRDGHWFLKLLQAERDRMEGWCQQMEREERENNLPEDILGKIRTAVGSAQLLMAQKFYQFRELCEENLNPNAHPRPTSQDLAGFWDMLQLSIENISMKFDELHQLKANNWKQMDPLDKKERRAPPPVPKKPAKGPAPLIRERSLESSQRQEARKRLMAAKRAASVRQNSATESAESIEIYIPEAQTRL
# UniProt P78352, whole entry: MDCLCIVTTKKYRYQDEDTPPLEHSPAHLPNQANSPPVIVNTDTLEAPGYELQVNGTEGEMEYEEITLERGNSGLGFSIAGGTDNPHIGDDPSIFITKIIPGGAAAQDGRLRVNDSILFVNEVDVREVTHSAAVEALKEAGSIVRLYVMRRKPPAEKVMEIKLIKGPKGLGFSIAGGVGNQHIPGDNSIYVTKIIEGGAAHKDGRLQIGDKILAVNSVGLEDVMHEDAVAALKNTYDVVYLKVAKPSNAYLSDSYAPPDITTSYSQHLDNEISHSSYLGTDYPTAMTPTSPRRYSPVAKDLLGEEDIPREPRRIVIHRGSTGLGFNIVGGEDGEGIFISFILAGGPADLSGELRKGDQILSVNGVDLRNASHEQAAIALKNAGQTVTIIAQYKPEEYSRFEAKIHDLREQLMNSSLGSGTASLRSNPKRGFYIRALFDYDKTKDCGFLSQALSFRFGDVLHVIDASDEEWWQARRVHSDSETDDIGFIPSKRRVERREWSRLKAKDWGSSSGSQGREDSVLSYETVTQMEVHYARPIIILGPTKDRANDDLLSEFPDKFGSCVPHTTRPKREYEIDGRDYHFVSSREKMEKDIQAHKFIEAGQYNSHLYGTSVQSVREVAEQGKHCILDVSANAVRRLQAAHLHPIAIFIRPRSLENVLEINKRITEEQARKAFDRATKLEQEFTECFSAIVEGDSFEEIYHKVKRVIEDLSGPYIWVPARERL
# Biological target: GKAP (UniProt O14490)
substance,measurement,value
PSD-95 (from UniProt P78352),Kd,176 µM
